{"source": "paper PMC6689761", "about": "(International Journal of Nanomedicine, 2019)", "experiment": "PK and biodistribution in rats after IM injection", "format": "in vivo, Sprague-Dawley rats", "conditions": "rat, day 7", "data": [{"substance": "2`-deoxy-5-fluoro-3`thiacytidine [FTC]", "values": [{"measurement": "FTC level in brain", "setting": "45 mg/kg", "result": 1.3, "unit": "ng/g"}, {"measurement": "FTC level in brain", "setting": "75 mg/kg", "result": 1, "unit": "ng/g"}, {"measurement": "FTC level in brain", "setting": "100 mg/kg", "result": 0.7, "unit": "ng/g"}]}]}
